Earlier results, collected in PMC8788626 (Lung cancer (Amsterdam, Netherlands), 2017).

Tested on: EGFR-mutant lung cancer
Details: first-line therapy, standard daily dosing, ARCHER 1050; cited from earlier work

COc1cc2ncnc(Nc3ccc(F)c(Cl)c3)c2cc1OCCCN1CCOCC1 [gefitinib]
median progression-free survival: 9.2 months
